Test results published in ChEMBL document CHEMBL5357012, “Dual N6/C7-Substituted 7-Deazapurine and Tricyclic Ribonucleosides with Affinity for G Protein-Coupled Receptors” (ACS Med Chem Lett, 2024).

Experiment: Cytotoxicity against human MRC5 cells assessed as reduction in cell viability measured after 3 days by resazurin dye based fluorimetric analysis

| SMILES | CC50 at 72 h |
| --- | --- |
| OC[C@H]1O[C@@H](n2cc(C(F)(F)F)c3c(NCc4ccccc4Cl)ncnc32)[C@H](O)[C@@H]1O | > 64 µM |
| C[C@H](Nc1ncnc2c1c(C(F)(F)F)cn2[C@@H]1O[C@H](CO)[C@@H](O)[C@H]1O)c1ccccc1 | > 64 µM |
| OC[C@H]1O[C@@H](n2cc(C(F)(F)F)c3c(NCc4ccccc4)ncnc32)[C@H](O)[C@@H]1O | > 64 µM |
| OC[C@H]1O[C@@H](n2cc(C(F)(F)F)c3c(NCc4ccc(Cl)cc4)ncnc32)[C@H](O)[C@@H]1O | > 64 µM |
| C[C@@H](Nc1ncnc2c1c(C(F)(F)F)cn2[C@@H]1O[C@H](CO)[C@@H](O)[C@H]1O)c1ccccc1 | 41.8 µM |
| C#Cc1cn([C@@H]2O[C@H](CO)[C@@H](O)[C@H]2O)c2ncnc(NCc3ccccc3)c12 | > 64 µM |
| OC[C@H]1O[C@@H](n2nc3c4c(ncnc42)N(Cc2ccccc2)C=C3)[C@H](O)[C@@H]1O | > 64 µM |
